Protein sequences, listed by entry. Tags and fused reporters are not part of them. Residues count along the entry.
UniProt Q6SZW1, 28-724 limits assumed: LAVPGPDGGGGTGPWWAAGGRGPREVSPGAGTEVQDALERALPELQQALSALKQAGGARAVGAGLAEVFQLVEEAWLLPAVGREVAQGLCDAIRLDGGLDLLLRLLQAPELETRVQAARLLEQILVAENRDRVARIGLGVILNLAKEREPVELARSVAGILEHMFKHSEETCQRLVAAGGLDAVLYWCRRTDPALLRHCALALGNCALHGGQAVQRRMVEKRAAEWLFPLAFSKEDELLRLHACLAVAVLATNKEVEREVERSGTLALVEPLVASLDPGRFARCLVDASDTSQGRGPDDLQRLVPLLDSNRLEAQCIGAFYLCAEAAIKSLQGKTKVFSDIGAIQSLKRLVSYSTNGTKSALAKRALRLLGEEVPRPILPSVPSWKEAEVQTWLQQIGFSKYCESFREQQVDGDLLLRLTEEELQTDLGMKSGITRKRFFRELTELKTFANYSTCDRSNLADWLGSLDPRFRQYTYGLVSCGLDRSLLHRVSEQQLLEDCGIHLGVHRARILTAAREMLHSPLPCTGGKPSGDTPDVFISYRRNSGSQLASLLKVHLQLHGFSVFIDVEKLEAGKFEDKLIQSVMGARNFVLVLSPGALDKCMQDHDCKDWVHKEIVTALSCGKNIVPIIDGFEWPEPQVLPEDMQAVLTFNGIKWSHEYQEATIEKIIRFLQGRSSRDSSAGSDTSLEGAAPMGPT

According to patent publication EP4782449A1, “TRICYCLIC PYRIDINE COMPOUND ACTING AS SARM1 ENZYME ACTIVITY INHIBITOR, AND USE THEREOF” (Artivila (ShenZhen) Innovation Center, Ltd., priority 2023, dated 2025):

Target: SARM1 (Homo sapiens, UniProt Q6SZW1)
Assay: In vitro biochemical assay for inhibiting SARM1 enzyme activity (PC6 fluorescence, NADase)
Details: full-length SARM1 from transfected HEK293 cells; 50 µM NAD, 50 µM PC6, 50 µM NMN activator; room temperature, 30 minutes

IC50: 100 to 1000 nM
Structure (SMILES): O=C1C(Cc2ccc(F)c(F)c2)CCN1c1ccc2c(c1)COc1cnccc1-2 (stereo not shown)
